Patent US6988446B2, “Purified nitric oxide synthase” (priority 1996, dated 2006)

Chains of the proteins cited; added tags and fusions are not shown.
UniProt P29476, whole entry: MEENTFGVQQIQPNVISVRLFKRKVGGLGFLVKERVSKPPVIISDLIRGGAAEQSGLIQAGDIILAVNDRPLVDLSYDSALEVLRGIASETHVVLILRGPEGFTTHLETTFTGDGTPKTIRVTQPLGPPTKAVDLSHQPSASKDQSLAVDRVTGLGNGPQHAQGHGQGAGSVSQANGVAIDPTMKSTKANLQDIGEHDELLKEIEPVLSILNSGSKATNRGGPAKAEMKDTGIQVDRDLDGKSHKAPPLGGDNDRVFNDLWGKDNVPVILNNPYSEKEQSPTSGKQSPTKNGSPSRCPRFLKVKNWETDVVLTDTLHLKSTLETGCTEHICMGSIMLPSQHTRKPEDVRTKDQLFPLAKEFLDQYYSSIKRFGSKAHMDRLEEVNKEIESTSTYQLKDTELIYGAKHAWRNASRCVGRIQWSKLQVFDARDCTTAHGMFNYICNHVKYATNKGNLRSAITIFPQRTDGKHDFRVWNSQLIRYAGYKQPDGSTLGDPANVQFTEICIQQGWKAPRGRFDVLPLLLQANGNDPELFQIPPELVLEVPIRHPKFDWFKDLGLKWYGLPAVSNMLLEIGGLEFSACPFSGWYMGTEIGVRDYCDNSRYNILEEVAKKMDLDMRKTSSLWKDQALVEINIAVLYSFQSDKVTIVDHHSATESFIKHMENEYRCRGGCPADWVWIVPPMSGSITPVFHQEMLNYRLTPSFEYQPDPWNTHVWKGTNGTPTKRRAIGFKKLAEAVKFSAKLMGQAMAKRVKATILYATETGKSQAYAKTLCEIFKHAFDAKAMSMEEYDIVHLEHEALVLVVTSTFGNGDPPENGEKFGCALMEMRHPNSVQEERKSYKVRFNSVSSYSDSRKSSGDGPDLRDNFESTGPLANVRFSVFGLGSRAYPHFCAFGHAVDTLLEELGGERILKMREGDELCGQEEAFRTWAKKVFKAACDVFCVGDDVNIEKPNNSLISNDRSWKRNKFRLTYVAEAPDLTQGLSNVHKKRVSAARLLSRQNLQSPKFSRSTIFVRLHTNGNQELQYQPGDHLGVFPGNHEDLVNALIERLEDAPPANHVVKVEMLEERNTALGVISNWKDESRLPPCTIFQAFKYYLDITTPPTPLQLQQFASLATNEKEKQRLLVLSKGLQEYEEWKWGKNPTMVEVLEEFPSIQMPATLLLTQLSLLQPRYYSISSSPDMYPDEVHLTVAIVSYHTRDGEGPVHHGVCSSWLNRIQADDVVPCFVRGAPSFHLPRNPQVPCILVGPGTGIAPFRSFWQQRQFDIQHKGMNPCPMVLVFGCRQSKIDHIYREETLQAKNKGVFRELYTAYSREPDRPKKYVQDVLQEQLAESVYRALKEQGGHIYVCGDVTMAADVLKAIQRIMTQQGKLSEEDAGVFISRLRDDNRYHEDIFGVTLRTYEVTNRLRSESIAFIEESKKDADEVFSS

Target: nNOS-II (Rattus norvegicus, UniProt P29476)
Assay: Kinetic determinations (KM, Vmax, Ki) with the standard enzyme assay
Format: biochemical
Conditions: substrate of nNOS-II, calmodulin added when L-arginine is substrate
Experimental: NOS Activity Assay: NOS activity was determined spectrophotometrically by the rapid and quantitative oxidation of oxyhemoglobin to methemoglobin (Feelish et al., Eur. J. Pharmacol. 139:19-30 (1987); Olken et al., Biochem. Biophys. Res. Commun. 177:828-833 (1991)).
Thus, reaction mixtures for NOS assays containing 50 mM Tris-HCl buffer (pH 7.5), were optimized to contain 4 μM oxyhemoglobin, 100 μM NADPH, 1 mM CaCl2, 10 μM FAD, 10 μM FMN, 20 μM BH4, 150 μM DTT, 100 μM BK or L-arginine and 0.1-3 μg enzyme in a final volume of 0.5 mL.
Thus, calmodulin (10 μg/mL) was added to the reaction mixtures when L-arginine was used as substrate.
Kinetic data were calculated by fitting experimental data to the EZ-FIT program (Perrella, Anal. Biochem. 174.437-447 (1988)).
NOS activity assay. NOS activity was determined spectrophotometrically by the rapid and quantitative oxidation of oxyhemoglobin to methemoglobin (10,11). Optimized reaction mixtures for NOS assays contained 50 mM Tris-HCl buffer (pH 7.5), and were optimized to contain 4 μM oxyhemoglobin, 100 μM NADPH, 1 mM CaCl2, 10 μM FAD, 10 μM FMN, 20 μM BH. 150 μM DTT, 100 μM BK or L-arginine and 0.1-3 μg enzyme in a final volume of 0.5 ml. Calmodulin (10 μg/ml) was added to the reaction mixtures when L-arginine was used as substrate.
Kinetic determinations. […] Kinetic data were calculated by fitting experimental data to EZ-FIT program (12).

Q: With “Cit^1-BK: synthetic nonapeptide in which the N-terminal arginine of BK is replaced with citrulline” as the substance, how does the “apparent Vmax” value read?
A: 1.6 μmol/min/mg protein

Q: And the Km (read-out: apparent KM)?
A: 6.2 µM
